Consider 1 substance from article PMC7614775 (Nature chemical biology, 2022).

Sequences of proteins named here, by UniProt entry; tags and fusion partners are left off. A change or cut given only in a name is not applied to a line headed by its entry.
UniProt P29597: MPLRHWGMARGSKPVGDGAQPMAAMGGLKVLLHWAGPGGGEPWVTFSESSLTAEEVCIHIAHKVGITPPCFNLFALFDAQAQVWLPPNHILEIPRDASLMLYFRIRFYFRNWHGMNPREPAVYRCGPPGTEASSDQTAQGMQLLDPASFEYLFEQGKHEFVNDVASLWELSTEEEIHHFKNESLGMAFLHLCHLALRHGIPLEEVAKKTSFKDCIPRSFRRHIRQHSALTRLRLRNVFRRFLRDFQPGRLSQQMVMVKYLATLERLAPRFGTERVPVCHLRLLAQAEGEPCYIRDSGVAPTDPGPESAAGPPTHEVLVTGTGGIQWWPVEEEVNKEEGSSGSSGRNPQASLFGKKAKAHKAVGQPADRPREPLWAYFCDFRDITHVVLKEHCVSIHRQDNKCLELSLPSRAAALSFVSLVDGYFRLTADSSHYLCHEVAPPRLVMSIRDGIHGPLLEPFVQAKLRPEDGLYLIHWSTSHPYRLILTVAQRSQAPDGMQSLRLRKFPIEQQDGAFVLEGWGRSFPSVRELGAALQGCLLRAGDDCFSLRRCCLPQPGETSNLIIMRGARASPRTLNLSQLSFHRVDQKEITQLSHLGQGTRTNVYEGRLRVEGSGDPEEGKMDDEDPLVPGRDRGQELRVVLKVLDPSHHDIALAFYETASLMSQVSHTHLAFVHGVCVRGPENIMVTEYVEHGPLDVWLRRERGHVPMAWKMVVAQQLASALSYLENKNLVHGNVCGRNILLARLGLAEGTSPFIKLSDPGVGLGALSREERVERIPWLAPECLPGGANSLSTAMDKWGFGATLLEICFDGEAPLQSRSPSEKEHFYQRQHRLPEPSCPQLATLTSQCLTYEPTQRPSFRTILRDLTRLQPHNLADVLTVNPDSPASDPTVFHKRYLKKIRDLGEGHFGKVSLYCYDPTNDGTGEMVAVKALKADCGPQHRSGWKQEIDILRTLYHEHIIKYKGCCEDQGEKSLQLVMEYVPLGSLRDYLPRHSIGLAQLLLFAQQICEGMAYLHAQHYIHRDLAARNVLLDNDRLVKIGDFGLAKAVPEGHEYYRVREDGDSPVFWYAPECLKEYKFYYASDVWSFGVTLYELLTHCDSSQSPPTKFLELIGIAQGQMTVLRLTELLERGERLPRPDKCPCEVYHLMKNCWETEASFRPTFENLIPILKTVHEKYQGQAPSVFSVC

The target in the experiment is TYK2 phosphorylation (pTYK2) (Homo sapiens, UniProt P29597). The experiment can be described thus: TYK2 phosphorylation western blot in 22Rv1 cells expressing TYK2 variants. The experiment is classed as cell-based. The note with it: WT-TYK2. (In general: In western blotting, separated proteins are transferred to a membrane and probed.)

Take “deucravacitinib [BMS-986165, reference compound]”: the “effect on phosphorylation of the TYK2 activation loop” value is listed as “suppressed”.
